Results published in publication PMC11062922 (Nature Chemical Biology, 2023).

Assays:
Design in all cases: species or system human
BMPR1A = assay: Kinobeads competition binding: BMPR1A; conditions: target BMPR1A
CDC42BPB = assay: Kinobeads competition binding: CDC42BPB; conditions: target CDC42BPB
CDK1 = assay: Kinobeads competition binding: CDK1; conditions: target CDK1
CDK16 = assay: Kinobeads competition binding: CDK16; conditions: target CDK16
CDK17 = assay: Kinobeads competition binding: CDK17; conditions: target CDK17
CLK2 = assay: Kinobeads competition binding: CLK2; conditions: target CLK2
DDR1 = assay: Kinobeads competition binding: DDR1; conditions: target DDR1
DDR2 = assay: Kinobeads competition binding: DDR2; conditions: target DDR2;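 note: target engagement share of this target among all targets at its Kdapp concentration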
GSPT1;GSPT2 = assay: Kinobeads competition binding: GSPT1;GSPT2; conditions: target GSPT1;GSPT2
IRAK4 = assay: Kinobeads competition binding: IRAK4; conditions: target IRAK4
LCK = assay: Kinobeads competition binding: LCK; conditions: target LCK
MAP2K1 = assay: Kinobeads competition binding: MAP2K1; conditions: target MAP2K1
MAP2K4 = assay: Kinobeads competition binding: MAP2K4; conditions: target MAP2K4
MAP2K6 = assay: Kinobeads competition binding: MAP2K6; conditions: target MAP2K6
MAP3K11 = assay: Kinobeads competition binding: MAP3K11; conditions: target MAP3K11
MAP3K2 = assay: Kinobeads competition binding: MAP3K2; conditions: target MAP3K2
MAP3K3 = assay: Kinobeads competition binding: MAP3K3; conditions: target MAP3K3
MAP3K4 = assay: Kinobeads competition binding: MAP3K4; conditions: target MAP3K4;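 note: target engagement share of this target among all targets at its Kdapp concentration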
MAP4K5 = assay: Kinobeads competition binding: MAP4K5; conditions: target MAP4K5
MAPK3 = assay: Kinobeads competition binding: MAPK3; conditions: target MAPK3
MAPK7 = assay: Kinobeads competition binding: MAPK7; conditions: target MAPK7
MAPK8 = assay: Kinobeads competition binding: MAPK8; conditions: target MAPK8
MARK4 = assay: Kinobeads competition binding: MARK4; conditions: target MARK4
MELK = assay: Kinobeads competition binding: MELK; conditions: target MELK;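 note: share of total target engagement due to this protein at one drug concentration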
MERTK = assay: Kinobeads competition binding: MERTK; conditions: target MERTK
MYLK3 = assay: Kinobeads competition binding: MYLK3; conditions: target MYLK3;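 note: share of all-target engagement taken by this protein at its own Kdapp concentration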
NEK1 = assay: Kinobeads competition binding: NEK1; conditions: target NEK1
NEK3 = assay: Kinobeads competition binding: NEK3; conditions: target NEK3
PIK3CB = assay: Kinobeads competition binding: PIK3CB; conditions: target PIK3CB

Measured: CATDS

CN(C)C/C=C/C(=O)Nc1cc2c(Nc3ccc(F)c(Cl)c3)ncnc2cc1O[C@H]1CCOC1 [Afatinib]
0: all assays above
